The target of one test is T1, Cytochrome P450 1B1 (Homo sapiens, UniProt Q16678).
T1 sequence (Q16678 whole entry): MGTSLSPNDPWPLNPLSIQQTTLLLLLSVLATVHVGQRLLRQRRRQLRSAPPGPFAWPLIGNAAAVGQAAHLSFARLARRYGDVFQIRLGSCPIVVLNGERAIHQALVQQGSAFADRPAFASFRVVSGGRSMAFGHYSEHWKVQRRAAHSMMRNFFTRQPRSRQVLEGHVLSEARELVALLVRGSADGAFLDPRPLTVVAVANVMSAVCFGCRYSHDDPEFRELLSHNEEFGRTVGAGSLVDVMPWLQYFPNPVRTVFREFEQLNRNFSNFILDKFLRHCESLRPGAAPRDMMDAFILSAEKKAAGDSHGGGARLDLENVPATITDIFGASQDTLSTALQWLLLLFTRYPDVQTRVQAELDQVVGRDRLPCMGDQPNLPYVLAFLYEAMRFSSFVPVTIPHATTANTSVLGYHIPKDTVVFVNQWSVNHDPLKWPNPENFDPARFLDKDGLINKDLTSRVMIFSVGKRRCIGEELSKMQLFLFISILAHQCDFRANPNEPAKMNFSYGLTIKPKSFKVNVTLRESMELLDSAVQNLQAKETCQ
The test can be described thus: Inhibition of ethoxyresorufin O-deethylation (EROD) in bicistronic bacterial membranes expressing human cytochrome P450 1B1. Type of test: ADME, cell membranes.

The target in another test is T2, Cytochrome P450 1A1 (Homo sapiens, UniProt P04798).
T2 sequence (P04798 whole entry): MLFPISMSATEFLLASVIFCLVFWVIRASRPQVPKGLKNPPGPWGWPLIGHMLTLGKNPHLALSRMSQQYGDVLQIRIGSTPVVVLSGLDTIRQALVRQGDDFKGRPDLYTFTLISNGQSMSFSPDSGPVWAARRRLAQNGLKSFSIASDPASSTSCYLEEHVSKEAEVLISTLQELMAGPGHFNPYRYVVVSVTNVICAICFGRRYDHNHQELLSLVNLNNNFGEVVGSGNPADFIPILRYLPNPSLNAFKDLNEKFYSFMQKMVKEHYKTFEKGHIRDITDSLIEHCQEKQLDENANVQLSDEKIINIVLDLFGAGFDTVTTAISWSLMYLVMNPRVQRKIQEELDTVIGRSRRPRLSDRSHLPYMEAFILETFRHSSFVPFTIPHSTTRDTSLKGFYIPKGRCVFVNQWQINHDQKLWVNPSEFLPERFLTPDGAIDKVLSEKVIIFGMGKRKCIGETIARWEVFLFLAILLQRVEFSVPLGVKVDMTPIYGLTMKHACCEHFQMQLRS
The test can be described thus: Inhibition of ethoxyresorufin O-deethylation (EROD) in bicistronic bacterial membranes epressing human cytochrome P450 1A1. Type of test: ADME, cell membranes.

Usually IC50 stands for the concentration that gives 50% inhibition. On to `COc1cc(/C=C/c2ccc(OC)cc2OC)cc(OC)c1`, for which the IC50 came out at 6 nM at Cytochrome P450 1B1 and 300 nM on Cytochrome P450 1A1.

The record behind these values is ChEMBL document CHEMBL1135393, “Design, synthesis, and discovery of novel trans-stilbene analogues as potent and selective human cytochrome P450 1B1 inhibitors” (J Med Chem, 2002).
